Literature values in patent US10604696B2, “Process for acidizing” (Cleansorb Limited, priority 2014, dated 2020).

Details: in water; cited from earlier work

calcium gluconate
Solubility: about 3.5 % by weight
